Biological target: Pin1 (GST-Pin1) (Homo sapiens, UniProt Q13526)
Assay: Fluorescence polarization (FP) assay, binding to Pin1
Settings: read-out: Ki, μM (FP Assay); competition with fluorescein-labeled peptide probe; 12 hours pre-incubation at 4° C.; Kenakin Ki equation

Sequences of proteins named here, by UniProt entry; tags and fusion partners are left off.
UniProt Q13526, whole entry: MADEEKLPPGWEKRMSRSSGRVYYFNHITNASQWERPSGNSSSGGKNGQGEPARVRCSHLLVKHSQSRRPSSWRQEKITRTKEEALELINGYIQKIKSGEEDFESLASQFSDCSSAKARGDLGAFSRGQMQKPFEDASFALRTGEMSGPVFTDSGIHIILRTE

Row | SMILES | Ki [µM]
1 | COC(=O)CC[C@H](NC(=O)CCl)C(=O)N1CCCC[C@H]1C(=O)N[C@@H](Cc1c[nH]c2ccccc12)C(=O)N[C@@H](CCCNC(N)=O)C(=O)N(C)Cc1ccc(C)cc1 | 0.2
2 | COC(=O)CC[C@H](NC(=O)CCl)C(=O)N1CCCC[C@H]1C(=O)N(C)[C@@H](Cc1c[nH]c2ccccc12)C(=O)N[C@@H](Cc1ccc(O)cc1)C(N)=O | 4.8
3 | COC(=O)CC[C@@H](NC(=O)CCl)C(=O)N1CCCC[C@H]1C(=O)N[C@@H](Cc1c[nH]c2ccccc12)C(=O)N[C@@H](CCCNC(N)=O)C(=O)NCc1ccc(C)cc1 | > 10
4 | NC(=O)NCCC[C@H](NC(=O)[C@H](Cc1ccc2ccccc2c1)NC(=O)[C@@H]1CCCCN1C(=O)C[C@H](CC(=O)O)NC(=O)CCl)C(N)=O | > 10
